Our source for the outcome values is PubChem BioAssay AID1620 (Sanford-Burnham Center for Chemical Genomics, 2009).

The structures appear in SMILES notation. Calls of active or inactive are those of the source.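 Rule for the calls: active = toxicity graded low, moderate or high, meaning less radioactive sulfur built into protein than in solvent-only controls; inactive = the rest.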

The data set relates to HeLa, 35S-Met/Cys protein incorporation toxicity, 3 h. Kind of data set: 35S-Met/Cys incorporation reduction in HeLa – HeLa cells, cytotoxicity control for PMI inhibitor project, late-stage follow-up (AID 1620).

Consider `CN(C)C(=O)c1cccc(-n2sc3ccccc3c2=O)c1`, for which the outcome was “inactive; no toxicity”.
